Like-named read-outs stand apart in the source and are kept apart here. Marks after values point to notes of the source that are not given here.
System: EGFR+ DCIS epithelium
Settings: for Median AI, DCIS / Median LI, DCIS: EGFR+ DCIS, ZD1839 10-200 mg/kg gavage from Day 14 (collapsed data)

COc1cc2ncnc(Nc3ccc(F)c(Cl)c3)c2cc1OCCCN1CCOCC1 [ZD1839, N-(3-chloro-4-fluorophenyl)-7-methoxy-6-(3-morpholinopropoxy)quinazolin-4-amine]
Apoptosis (AI) in ER+/EGFR+ DCIS (Day 14 as printed): 1.5 (IQR 1.3-1.6) %
LI in ER+/EGFR+ DCIS (Day 14 as printed): 4.6 (IQR 3.9-5.2%)
Median AI, DCIS (Day 21): 1.47**
Median LI, DCIS (Day 21): 4.6**
Median LI/AI, DCIS (Day 21, ratio of cell turnover): 2.7***
Median AI, DCIS (Day 28): 0.64
Median LI, DCIS (Day 28): 5.1**

— patent US7553815B1, “Therapeutic use” (priority 1999, dated 2009)
